The experiment deals with NCl-N87 gastric cancer cell line xenograft. Put plainly: Anti-cancer efficacy test in NCl-N87 xenograft model. Format: in vivo, BALB/c nude mice. The conditions noted are these: 5 mg/kg intravenous, once/3 day three times, observation period 5 weeks. The text has this:
A target antigen-overexpressing NCl-N87 gastric cancer cell line was subcutaneously transplanted into mice to establish a xenograft model, and the mice were divided into 4 groups to perform an anti-cancer efficacy test on the materials administered. Because the BALB/c nude mice used in this test were deficient in T cells, cancer cells were easily transplanted into the BALB/c nude mice. Therefore, the BALB/c nude mice were used as a model suitable for an anti-cancer efficacy test using a rodent. One vial of a human tumor cell line (NCl-N87 cell line) was put into a cell culture flask containing an RPMI1640 medium (Gibco, 22400-089) supplemented with heat-inactivated 10% fetal bovine serum (FBS; Gibco, 10082-742), and cultured at 37° C. in a 5% CO2 incubator. The cell culture medium was washed with PBS, and diluted 10-fold with 2.5% trypsin-EDTA (Gibco, 15090). Thereafter, the diluted cell culture medium was added to separate the cells, and the cells were centrifuged (at 1,000 rpm for 5 minutes) to discard a supernatant. […] Group 5: AbClick®Pro(VC, DM1); and Group 6: AbClick®Pro(VC, MMAE) The tumor size was measured twice a week for 5 weeks from the start date for administration of the test substance. The major- and minor-axis lengths of a tumor were measured using calipers, and the tumor size was calculated according to the following equation. […]

For trastuzumab, the “suppression of the growth of tumor” value is “did not show a tendency to suppress the growth of tumor”.

The record behind these values is US11896675B2, “Site-specific antibody conjugation and antibody-drug conjugate as specific embodiment thereof” (AbTis Co., Ltd., priority 2019, dated 2024).
